# Binding of CDR-mutated scFvs to a peptide of the spike HR2 region

Binding partner: SARS-CoV-2 spike HR2 peptide, sequence PDVDLGDISGINAS.

Parent: Ab-14, a human scFv built as VH, three GGGGS repeats, VL. Only the CDRs of the heavy chain vary.
VH: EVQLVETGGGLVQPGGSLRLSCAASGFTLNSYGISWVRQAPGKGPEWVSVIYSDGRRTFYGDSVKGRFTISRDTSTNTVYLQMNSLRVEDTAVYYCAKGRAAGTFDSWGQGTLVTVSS
VL: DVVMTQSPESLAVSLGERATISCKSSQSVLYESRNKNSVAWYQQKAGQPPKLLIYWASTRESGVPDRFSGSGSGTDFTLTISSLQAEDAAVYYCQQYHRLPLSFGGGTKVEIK

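The starting antibody came from a phage panning campaign against this peptide. Designed CDR sequences, proposed from the first random library and measured here. Group labels follow the data file (Ctrl: baseline library sampled from a position-specific scoring matrix, with some repeated check sequences; Rand: our label for a block that the file lists under HC and that is probably the random mutants of the ten best first-round binders; En: ensemble of fine-tuned language models; GP: Gaussian process model; GPLM: also part of the Gaussian process libraries; HC: hill climbing; Gen: genetic algorithm; Gibbs: Gibbs sampling; a sequence that several methods proposed may carry one label only). AlphaSeq pools MATa yeast showing the antibodies with MATalpha yeast showing the peptide. After mating in shaken culture at 30 °C for 16 h, diploids were selected and their barcode pairs sequenced. Scores were corrected for input abundance and mapped to Kd with protein pairs of known affinity run in the same pool. Mating was done six times.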

The parent's heavy chain CDRs are GFTLNSYGIS, VIYSDGRRTFYGDSVK, GRAAGTFDS; each variant's own CDRs replace them letter for letter. Variants here have at most six changes. Kd is apparent (estimated from mating counts) and averaged on the log scale over replicates with a signal. Smaller is tighter. A pair that was not seen in any replicate is written "nd"; this usually means weak binding, but a binder can also be missed. The authors' rule: three or more of the six replicates give a measured affinity, fewer mean a poor binder. A sequence that the file lists under several names has all its replicates pooled. Of ten entries with the parent sequence, four were seen in most replicates (averages 2.2 nM to 240 nM), three in one and three in none, so single entries are noisy. The range of this assay differs from that of the first round, and the authors advise against merging the two. Nonspecific signal, from three strains lacking the peptide, appeared in 1% of pairings of all heavy chain designs, centred on 120 nM (5% of these signals below 7.0 nM); values are not corrected for it.

- GFGLNNYGIS / VIYSDGRRTFYGDSVK / GRAAGTFDS [Ctrl] = 32 nM (2 of 6 replicates)
- GFSLNSYGIS / VIYSDGRRTFYGDSVK / GTQAGTFDS [GP_Gen] = 650 pM (6 of 6 replicates)
- GFTLNSYGIS / VIYADGRRTFYGDVVK / GRAAGTPKS [Rand] = nd (0 of 6 replicates)
- KFQLNSYGIS / VIYSDGRRTFYADSVK / GRLAGTFDT [GP_Gibbs] = 520 pM (6 of 6 replicates)
- GFTLNEYGIS / VIYSDGVRTFYIDSVK / GRAAGTFDS [GP_HC] = 4.1 nM (6 of 6 replicates)
- GFDLNSYGIS / VIYADGRRTFYGDSVK / GREAGTFDS [Ctrl+GP_Gibbs] = 420 pM (12 of 12 replicates)
- GFDLNSYGIS / VIYSDGRRTFYSDSVK / GRAAGKFDS [GP_Gibbs] = 510 nM (1 of 6 replicates)
- GFSLNSYGIS / VIYSDGRRTFYGDSVK / GQVAGTFDS [GPLM_Gen] = 1.3 nM (6 of 6 replicates)
- GFTIKEYGYS / VMYSDGRRTFYGDSVK / GQAAGTFDS [Ctrl] = 3.5 nM (6 of 6 replicates)
- KFSLNSYGIS / VIYSDGRRTFYHDSVK / GRTAGTFDS [GP_Gibbs] = 32 nM (6 of 6 replicates)
- GFDLNSYGIS / VIYSDGRRTFYGDSVK / GRKAGTFDS [GP_Gen] = 53 nM (4 of 6 replicates)
- GFTLNLYGIS / VIYADGQRTFYGDSVK / GRAALTFDS [Ctrl] = nd (0 of 6 replicates)
- GFDLNEYGIS / VIYSDGRRTFYHDSVK / GRTAGTFDS [GP_Gen] = 710 pM (6 of 6 replicates)
- GFSLNSYGIS / VIYSDGRRTFYIDSVK / GQAAGTFDT [GPLM_Gen] = 7.2 nM (6 of 6 replicates)
- GFTLNSYGIS / VIYSDGERTFYGDSVK / GRDAGQFDS [Ctrl] = nd (0 of 6 replicates)
- GFDLNSYGIS / VIYSDGRRTFYADSVK / GRAAGIFDS [GPLM_Gen] = nd (0 of 6 replicates)
- GFTLNSYGIS / VIYSDGRRTFYSDSVK / GRWAGTFPS [Ctrl] = nd (0 of 6 replicates)
- GFTLNEYGIS / VIYSDGRRTFYGDSEK / GKVAGTFDV [Ctrl] = nd (0 of 6 replicates)
- GFMLNSYGIS / VIYSDGRRTFYEDSQK / GRAAGTFDS [Ctrl] = nd (0 of 6 replicates)
- GFGLNSYGIS / VIYSDGRRTFYHDEVK / GRTAGTFDS [GP_Gibbs] = 26 nM (2 of 6 replicates)
- GFSLNSYGIS / VIYSDGRRTFYGDPVK / GEAAGTFDS [GPLM_Gen] = 11 nM (5 of 6 replicates)
- GFNLESYGIS / VIYSDGRRTFYGDSVK / GRAAGTFDS [Ctrl] = 22 nM (5 of 6 replicates)
- GFSVNSYGIS / VIYSDGRRTFYGDSVK / GRAAGTFDS [Ctrl] = 45 nM (6 of 6 replicates)
- GFELNSYGIS / VIYSDGRRTFYDDSVK / GQAAGTFDD [GP_HC] = 120 nM (5 of 6 replicates)
- GFELNSYGIS / VIYSDGRRTFYKDSVK / GREAGTFDS [GP_Gen] = 570 pM (6 of 6 replicates)
- GFNLNSYGIS / VIYSDGRRTFYGDSVK / GRAQGTFDS [Ctrl] = nd (0 of 6 replicates)
- GFTLNSYGIS / VIYADGMRTFYGDDVK / GRAAGTFDS [Ctrl] = 9.2 nM (6 of 6 replicates)
- GFTLNEYGIS / VIYSDGRRTFYTYSVK / GRFAGTFDS [Rand] = nd (0 of 6 replicates)
- GFTLNSYGIS / VIYSDGERTFYGDSVK / GTAAGTFDS [Ctrl] = 35 nM (6 of 6 replicates)
- GFDLNEYGIS / VIYADGRRTFYKDSVK / GEAAGTFDV [En_HC] = 1.5 nM (6 of 6 replicates)
- GFALNEYGIS / VIYSDGRRTFYGDSVK / GRTAGTFDT [GP_Gen] = 770 pM (6 of 6 replicates)
- GFTLDSYGIS / VIYSDGRRTFYGDSVK / GRAAGTFDS [Ctrl] = 52 nM (5 of 6 replicates)
- GFKLNSYGIS / VIYSDGRRTFYKDSVK / GKTAGTFDS [GP_Gibbs] = 200 nM (5 of 6 replicates)
- GFVLNEYGIS / VIYSDGRRTFYGDSVK / GQAAGTFDK [GPLM_Gen] = 13 nM (6 of 6 replicates)
- GFTLESYGIS / VIYSDGRRTFYSDSVK / GQAGGTFDS [GPLM_HC] = 58 nM (1 of 6 replicates)
- GFTLNQYGIS / VIYSDGRRTFYGDSVK / GRAAQTFDS [Ctrl] = nd (0 of 6 replicates)
- GFTLNEYGIS / VIYSDGRRTFYADSVK / GRVAGTFDS [Ctrl+GPLM_Gen] = 230 pM (12 of 12 replicates)
- GYTLDSYGIS / VIYSDGRRTFYGDSVK / GRAAGTALS [Rand] = nd (0 of 6 replicates)
- KFDLNSYGIS / VIYSDGRRTFYCDSVK / GKTAGTFDS [GP_Gibbs] = 25 nM (5 of 6 replicates)
- GFQLNSYGIS / VIYSDGRRTAYGDSVK / GRAAGTFDS [GP_Gen] = 7.3 nM (6 of 6 replicates)
- GFTINSYGIS / VIYSDGRRTSYTDSVK / GRLAGTFID [Ctrl] = nd (0 of 6 replicates)
- GFTLNQYGIS / VIYSDGRRTFYSDSVK / GRAAGFDWS [Rand] = nd (0 of 6 replicates)
- GFSLNKYGIS / VIYSDGRRTFYGDSVK / GRTAGTFDS [GPLM_Gen] = 9.4 nM (6 of 6 replicates)
- GFQLNSYGIS / VIYSDGRRTFYADSVK / GNAAGTFDS [GPLM_Gen] = nd (0 of 6 replicates)
- GFDLNEYGIS / VIYADGRRTAYIDSVK / GTAAGTFDS [En_HC] = 94 pM (6 of 6 replicates)

Picked from the list: the 3 lowest averages where every replicate gave a value.

CDR-H1	CDR-H2	CDR-H3	group	Kd (apparent)	seen in
GFDLNEYGIS	VIYADGRRTAYIDSVK	GTAAGTFDS	En_HC	94 pM	6/6
GFTLNEYGIS	VIYSDGRRTFYADSVK	GRVAGTFDS	Ctrl+GPLM_Gen	230 pM	12/12
GFDLNSYGIS	VIYADGRRTFYGDSVK	GREAGTFDS	Ctrl+GP_Gibbs	420 pM	12/12

From the AlphaSeq antibody data of Li et al. 2023 (doi:10.1038/s41467-023-39022-2), copy in the FLAb collection.